For this assay, the system named is CD46 expression. The experiment in a line: CD46 expression by RNA-sequencing in paired tumor biopsies before and after therapy.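 Note: FFPE human tumor biopsies, exome-capture RNA-seq, reads aligned to GRCh37, counts normalized for GC content, length and depth, summed per gene, log2-transformed, samples paired before versus after therapy.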 The following applies: RNA-seq log2-transformed counts.

Structures are written as SMILES.

Results on one compound are retold here after US20240058464A1, “COMBINATION THERAPY WITH FOR46 FOR CANCER” (Fortis Therapeutics, Inc., priority 2021, published 2024).

On to `N.N.O=C([O-])C1(C(=O)[O-])CCC1.[Pt+2]` [carboplatin], for which the “CD46 expression, Post-Treatment Biopsy” value (Endometrial Cancer) amounted to 6.25. In addition, the “CD46 expression, Pre-Treatment Biopsy” value (Non-Small Cell Lung Cancer) is listed as 6.13.
